{"source": "patent US4975434A", "about": "“Antiviral and anticancer cyclopentenyl cytosine” (priority 1989, dated 1990)", "key": {"HIV (AIDS virus)": {"test_system": "HIV (AIDS virus)", "type": "cell-based"}}, "data": [{"smiles": "Nc1ccn([C@@H]2C=C(CO)[C@@H](O)[C@H]2O)c(=O)n1", "note": "[CPE-C]", "values": [{"measurement": "anti-HIV (retroviral) activity", "setting": "HIV (AIDS virus)", "value": "No anti-HIV (retroviral) activity"}, {"measurement": "cytotoxicity to host cell line", "setting": "ATH8 host cell line", "value": "potent cytotoxicity"}]}]}
